IC50 data for 25 molecules are collected here from patent US10280144B2, “Pyridazine derivatives as RORc modulators” (Genentech, Inc., priority 2015, dated 2019).

Amino acid sequences for entries named in this document (tags omitted). Residues count along the entry.
UniProt P51449, 269-508: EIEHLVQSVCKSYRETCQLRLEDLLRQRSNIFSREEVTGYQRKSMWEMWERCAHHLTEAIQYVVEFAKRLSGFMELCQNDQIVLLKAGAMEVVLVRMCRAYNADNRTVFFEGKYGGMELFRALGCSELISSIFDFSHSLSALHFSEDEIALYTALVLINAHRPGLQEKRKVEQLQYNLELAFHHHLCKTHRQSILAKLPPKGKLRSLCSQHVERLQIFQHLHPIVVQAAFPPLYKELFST

A word on the IC50: it is the concentration at which inhibition is half-maximal. Higher therefore signals lower potency.

The target of the assay is RORc ligand binding domain (Homo sapiens (Human), UniProt P51449). Nature of the assay: In Vitro RORc Ligand Binding Assay. As to conditions: radioligand 25-[3H]hydroxycholesterol.
The molecule `CCN(C[C@@]12CC[C@@H](c3cc(-c4c(F)cccc4F)nnc31)C2(C)C)C(=O)CC1NC(=O)c2ccccc21` (stereo partly drawn) [Compound 56, N-(((5R,8S)-3-(2,6-difluorophenyl)-9,9-dimethyl-5,6,7,8-tetrahydro-5,8-methanocinnolin-8-yl)methyl)-N-ethyl-2-(3-oxoisoindolin-1-yl)acetamide] had an IC50 of 35.5 nM.

In turn, `CCN(C[C@@]12CC[C@@H](c3cc(-c4c(F)cccc4F)nnc31)C2(C)C)C(=O)CC1CCS(=O)(=O)C1` (stereo partly drawn) [Compound 58, N-(((5R,8S)-3-(2,6-difluorophenyl)-9,9-dimethyl-5,6,7,8-tetrahydro-5,8-methanocinnolin-8-yl)methyl)-2-(1,1-dioxidotetrahydrothiophen-3-yl)-N-ethylacetamide] gave an IC50 of 38.6 nM. This IC50 and that of the molecule before are within 1.5-fold of each other.

`CCN(C[C@@]12CC[C@@H](c3cc(-c4c(F)cccc4F)nnc31)C2(C)C)C(=O)C1CCCN(C(N)=O)C1` (stereo partly drawn) [Compound 59, N3-(((5R,8S)-3-(2,6-difluorophenyl)-9,9-dimethyl-5,6,7,8-tetrahydro-5,8-methanocinnolin-8-yl)methyl)-N3-ethylpiperidine-1,3-dicarboxamide] showed an IC50 of 81.2 nM.

Regarding `CCN(C[C@@]12CC[C@@H](c3cc(-c4c(F)cccc4F)nnc31)C2(C)C)C(=O)CC1Oc2ccccc2NC1=O` (stereo partly drawn) [Compound 60, N-(((5R,8S)-3-(2,6-difluorophenyl)-9,9-dimethyl-5,6,7,8-tetrahydro-5,8-methanocinnolin-8-yl)methyl)-N-ethyl-2-(3-oxo-3,4-dihydro-2H-benzo[b][1,4]oxazin-2-yl)acetamide], the IC50 was determined as 13.2 nM.

`CCN(C[C@@]12CC[C@@H](c3cc(-c4c(F)cccc4F)nnc31)C2(C)C)C(=O)C1CCCN1S(C)(=O)=O` (stereo partly drawn) [Compound 61, N-(((5R,8S)-3-(2,6-difluorophenyl)-9,9-dimethyl-5,6,7,8-tetrahydro-5,8-methanocinnolin-8-yl)methyl)-N-ethyl-1-(methylsulfonyl)pyrrolidine-2-carboxamide] had an IC50 of 60.8 nM.

In the case of `CCN(C[C@@]12CC[C@@H](c3cc(-c4c(F)cccc4F)nnc31)C2(C)C)C(=O)c1ccc(NC(C)=O)cc1` [Compound 62, 4-acetamido-N-(((5R,8S)-3-(2,6-difluorophenyl)-9,9-dimethyl-5,6,7,8-tetrahydro-5,8-methanocinnolin-8-yl)methyl)-N-ethylbenzamide], the IC50 stood at 21.3 nM. Against the preceding molecule, the IC50 is about 2.9-fold lower.

As to `CCN(C[C@@]12CC[C@@H](c3cc(-c4c(F)cccc4F)nnc31)C2(C)C)C(=O)c1ccc2[nH]c(C)nc2c1` [Compound 63, N-(((5R,8S)-3-(2,6-difluorophenyl)-9,9-dimethyl-5,6,7,8-tetrahydro-5,8-methanocinnolin-8-yl)methyl)-N-ethyl-2-methyl-1H-benzo[d]imidazole-5-carboxamide], the IC50 came to 37 nM.

Take `CCN(C[C@@]12CC[C@@H](c3cc(-c4c(F)cccc4F)nnc31)C2(C)C)C(=O)c1ccc(-c2ncccn2)cc1` [Compound 64, N-(((5R,8S)-3-(2,6-difluorophenyl)-9,9-dimethyl-5,6,7,8-tetrahydro-5,8-methanocinnolin-8-yl)methyl)-N-ethyl-4-(pyrimidin-2-yl)benzamide]: the 50% inhibitory concentration (IC50) is 12.1 nM.

`CCN(C[C@@]12CC[C@@H](c3cc(-c4c(F)cccc4F)nnc31)C2(C)C)C(=O)c1cccc(-n2cnnc2)c1` [Compound 66, N-(((5R,8S)-3-(2,6-difluorophenyl)-9,9-dimethyl-5,6,7,8-tetrahydro-5,8-methanocinnolin-8-yl)methyl)-N-ethyl-3-(4H-1,2,4-triazol-4-yl)benzamide]: the IC50 was found to be 40.6 nM.

In turn, `CCN(C[C@@]12CC[C@@H](c3cc(-c4c(F)cccc4F)nnc31)C2(C)C)C(=O)c1ccc(-c2nnn(C)n2)cc1` [Compound 67, N-(((5R,8S)-3-(2,6-difluorophenyl)-9,9-dimethyl-5,6,7,8-tetrahydro-5,8-methanocinnolin-8-yl)methyl)-N-ethyl-4-(2-methyl-2H-tetrazol-5-yl)benzamide] came in with an IC50 of 13.4 nM.

For the molecule `CCN(C[C@@]12CC[C@@H](c3cc(-c4c(F)cccc4F)nnc31)C2(C)C)C(=O)c1ccc(S(=O)(=O)NC)cc1` [Compound 68, N-(((5R,8S)-3-(2,6-difluorophenyl)-9,9-dimethyl-5,6,7,8-tetrahydro-5,8-methanocinnolin-8-yl)methyl)-N-ethyl-4-(N-methylsulfamoyl)benzamide], the IC50 came out at 15.5 nM. The IC50 values of the last two molecules are within 1.5-fold of each other.

In the case of `CCN(C[C@@]12CC[C@@H](c3cc(-c4c(F)cccc4F)nnc31)C2(C)C)C(=O)c1ccc(Cn2nnnc2C)cc1` [Compound 69, N-(((5R,8S)-3-(2,6-difluorophenyl)-9,9-dimethyl-5,6,7,8-tetrahydro-5,8-methanocinnolin-8-yl)methyl)-N-ethyl-4-((5-methyl-1H-tetrazol-1-yl)methyl)benzamide], the IC50 turned out to be 24.3 nM. Against the preceding molecule, the IC50 is about 1.6-fold higher.

In the case of `CCN(C[C@@]12CC[C@@H](c3cc(-c4c(F)cccc4F)nnc31)C2(C)C)C(=O)c1ccc(N2CCOCC2)cc1` [Compound 70, N-(((5R,8S)-3-(2,6-difluorophenyl)-9,9-dimethyl-5,6,7,8-tetrahydro-5,8-methanocinnolin-8-yl)methyl)-N-ethyl-4-morpholinobenzamide], the IC50 was 33.1 nM.

Molecule `CCN(C[C@@]12CC[C@@H](c3cc(-c4c(F)cccc4F)nnc31)C2(C)C)C(=O)c1ccc(C#N)nc1` [Compound 74, 6-cyano-N-(((5R,8S)-3-(2,6-difluorophenyl)-9,9-dimethyl-5,6,7,8-tetrahydro-5,8-methanocinnolin-8-yl)methyl)-N-ethylnicotinamide] registered an IC50 of 22.5 nM. The IC50 values of the last two molecules are within 1.5-fold of each other.

`CCN(C[C@@]12CC[C@@H](c3cc(-c4c(F)cccc4F)nnc31)C2(C)C)C(=O)c1n[nH]c2cc(F)ccc12` [Compound 77, N-(((5R,8S)-3-(2,6-difluorophenyl)-9,9-dimethyl-5,6,7,8-tetrahydro-5,8-methanocinnolin-8-yl)methyl)-N-ethyl-6-fluoro-1H-indazole-3-carboxamide] returned an IC50 of 9.2 nM.

On to `CCN(C[C@@]12CC[C@@H](c3cc(-c4c(F)cccc4F)nnc31)C2(C)C)C(=O)c1c[nH]cn1` [Compound 78, N-(((5R,8S)-3-(2,6-difluorophenyl)-9,9-dimethyl-5,6,7,8-tetrahydro-5,8-methanocinnolin-8-yl)methyl)-N-ethyl-1H-imidazole-4-carboxamide], for which the IC50 was determined as 31.4 nM.

In turn, `CCN(C[C@@]12CC[C@@H](c3cc(-c4c(F)cccc4F)nnc31)C2(C)C)C(=O)c1ccc(OCc2noc(C)n2)cc1` [Compound 81, N-(((5R,8S)-3-(2,6-difluorophenyl)-9,9-dimethyl-5,6,7,8-tetrahydro-5,8-methanocinnolin-8-yl)methyl)-N-ethyl-4-((5-methyl-1,2,4-oxadiazol-3-yl)methoxy)benzamide] registered an IC50 of 14.7 nM. This IC50 lies about 2.1-fold lower than the previous one.

Turning to `CCN(C[C@@]12CC[C@@H](c3cc(-c4c(F)cccc4F)nnc31)C2(C)C)C(=O)c1cc[nH]n1` [Compound 83, N-(((5R,8S)-3-(2,6-difluorophenyl)-9,9-dimethyl-5,6,7,8-tetrahydro-5,8-methanocinnolin-8-yl)methyl)-N-ethyl-1H-pyrazole-3-carboxamide], the IC50 is 21.3 nM.

Molecule `CCN(C[C@@]12CC[C@@H](c3cc(-c4c(F)cccc4F)nnc31)C2(C)C)C(=O)c1nc2ccccc2c(=O)[nH]1` [Compound 89, N-(((5R,8S)-3-(2,6-difluorophenyl)-9,9-dimethyl-5,6,7,8-tetrahydro-5,8-methanocinnolin-8-yl)methyl)-N-ethyl-4-oxo-3,4-dihydroquinazoline-2-carboxamide] came in with an IC50 of 105 nM. This IC50 is about 4.9-fold higher than that of the molecule before.

`CCN(C[C@@]12CC[C@@H](c3cc(-c4c(F)cccc4F)nnc31)C2(C)C)C(=O)C1CN(C(=O)C(C)C)C1` [Compound 91, N-(((5R,8S)-3-(2,6-difluorophenyl)-9,9-dimethyl-5,6,7,8-tetrahydro-5,8-methanocinnolin-8-yl)methyl)-N-ethyl-1-isobutyrylazetidine-3-carboxamide] showed an IC50 of 68.7 nM.

With `CCN(C[C@@]12CC[C@@H](c3cc(-c4c(F)cccc4F)nnc31)C2(C)C)C(=O)C1CN(S(C)(=O)=O)C1` [Compound 92, N-(((5R,8S)-3-(2,6-difluorophenyl)-9,9-dimethyl-5,6,7,8-tetrahydro-5,8-methanocinnolin-8-yl)methyl)-N-ethyl-1-(methylsulfonyl)azetidine-3-carboxamide], the IC50 came out at 28.1 nM.

The molecule `CCN(C[C@@]12CC[C@@H](c3cc(-c4c(F)cccc4F)nnc31)C2(C)C)C(=O)c1nn(C)cc1-c1ccno1` [Compound 93, N-(((5R,8S)-3-(2,6-difluorophenyl)-9,9-dimethyl-5,6,7,8-tetrahydro-5,8-methanocinnolin-8-yl)methyl)-N-ethyl-4-(isoxazol-5-yl)-1-methyl-1H-pyrazole-3-carboxamide] gave an IC50 of 72.9 nM.

Take `CCN(C[C@@]12CC[C@@H](c3cc(-c4c(F)cccc4F)nnc31)C2(C)C)C(=O)c1cc(C(F)(F)F)n(C)n1` [Compound 94, N-(((5R,8S)-3-(2,6-difluorophenyl)-9,9-dimethyl-5,6,7,8-tetrahydro-5,8-methanocinnolin-8-yl)methyl)-N-ethyl-1-methyl-5-(trifluoromethyl)-1H-pyrazole-3-carboxamide]: the IC50 worked out at 5.5 nM. Compared with the last molecule, the IC50 is about 13-fold lower.

`CCN(C[C@@]12CC[C@@H](c3cc(-c4c(F)cccc4F)nnc31)C2(C)C)C(=O)CCN1CCN(C(N)=O)CC1` [Compound 95, 4-(3-((((5R,8S)-3-(2,6-difluorophenyl)-9,9-dimethyl-5,6,7,8-tetrahydro-5,8-methanocinnolin-8-yl)methyl)(ethyl)amino)-3-oxopropyl)piperazine-1-carboxamide]: the IC50 worked out at 152 nM.

For `CCN(C[C@@]12CC[C@@H](c3cc(-c4c(F)cccc4F)nnc31)C2(C)C)C(=O)c1cc(-c2cn(C)nc2C)on1` [Compound 96, N-(((5R,8S)-3-(2,6-difluorophenyl)-9,9-dimethyl-5,6,7,8-tetrahydro-5,8-methanocinnolin-8-yl)methyl)-5-(1,3-dimethyl-1H-pyrazol-4-yl)-N-ethylisoxazole-3-carboxamide], the IC50 came out at 10.4 nM.
